Publication PMC4013589, “LXXLL Peptide Converts Transportan 10 to a Potent Inducer of Apoptosis in Breast Cancer Cells” (International Journal of Molecular Sciences, 2014)

Tested on: human primary fibroblasts (FB188 cells)
Assay: WST-1 viability assay, primary fibroblasts (FB188)
Assay type: cell-based
Settings: WST-1, 5 μM peptide, treated every 24 h, day 3, 1% FBS; triplicate
Experimental: Figure 1. Effects of SRC-1 bioportides on cancer and primary fibroblast cells. (A) Viability of MCF-7 cells; (B) Viability of FB188 cells. Cells were seeded in 96-well plates at a density of 3000 or 2000 cells/well, respectively, and treated after every 24 h with the indicated peptide concentrations. Viability of both cell types was monitored at day 3 via the WST-1 assay. The values shown represent the mean values of one experiment, carried out in triplicate (mean ± SD). In total, three independent experiments were performed.
Cytotoxicity of peptides was measured via the WST-1 conversion assay (Roche, Mannheim, Germany). FB188 and MCF-7 cells were seeded in 96-well plates at a density of 2000 or 3000 cells/well, respectively, and allowed to adhere overnight. Subsequently the cells were pre-incubated for two days in medium containing 1% FBS without supplementary insulin and exposed to the indicated concentrations of the respective peptide for up to 3 days. WST-1 conversion was determined by colorimetric analysis at 450 nm. Briefly, WST-1 reagent (1/10 of sample volume) was added directly to the growth medium and incubated at 37 °C for 4 h. The absorbance was determined using a microplate reader (Molecular Devices, Sunnyvale, CA, USA) at 450 nm. Untreated cells were designated a cell survival value of 100%.

For TP10 [reference compound], the “Effect on viability of human primary fibroblasts” value was “did not have any effect”.
